In paper PMC6444592, “Citrullination of HP1γ chromodomain affects association with chromatin” (Epigenetics & Chromatin, 2019):

Test system: PADI4
Assay: in vitro citrullination (deimination) assay of HP1γ
Type: biochemical, human
Details: 100 ng peptide; GST-HP1γWT substrate; with calcium; n = 3, p value: 0.004
Description: For immunoblotting, cells were lysed in 2 × Laemmli buffer and sonicated in a water bath (Fisherbrand) for 3 min to shear genomic DNA, spun down at full speed in a microfuge for 15 min and incubated for 5 min at 95 °C. Proteins were resolved by SDS-PAGE, transferred to nitrocellulose membrane (Millipore) using wet transfer (transfer buffer: 192 mM glycine, 25 mM Tris.HCl pH8.8) and incubated in blocking solution (5% BSA in TBS containing 0.5% Tween-20 for citrulline sensitive antibodies and 5% non-fat milk powder in TBS containing 0.1% Tween-20 for all other antibodies) for 1 h at room temperature (RT). Membranes were incubated with primary antibody at 4 °C o/n and appropriate HRP-conjugated secondary antibody for 1 h at RT. Membranes were then incubated for enhanced chemiluminescence (ECL, Promega), and proteins were detected by exposure to X-ray film or using the ChemiDoc™ MP imaging system (Bio-Rad). Images were quantified using ImageJ analysis software. Primary antibodies diluted in blocking solution were used to detect citrullinated histone H3R2 (H3R2-Cit, Abcam ab176843 at 1:1000 dilution), HP1γ (Millipore 05-690 MAB clone 42s2 [16] at 1:1000 dilution), β-Tubulin (Abcam ab6046 at 1:1000 dilution) and peptidyl-citrulline (Millipore MABN328, clone F95 [48] at 1:1000 dilution). […]

NH2-ARTKQTARK(me3)STGGKAP-Biotin (ARTKQTARKSTGGKAP; trimethyl-lysine at K9 (K(me3)); biotin at the C-terminus) [H3K9me3(1–16), trimethylated H3K9 peptide, residues 1–16, reference compound]
increase of HP1γ citrullination by PADI4 (fold): approximately twofold
